Values quoted from earlier work, collected in patent US7217431B2, “Controlled agglomeration” (LifeCycle Pharma A/S, priority 2001, dated 2007).

Conditions: Table 2, figure in brackets after 'Low'

Buprenorphine
Bioavailability: Low (<30%)
